Data on 1 molecule can be found in patent publication US20230265151A1, “GIP/GLP1 CO-AGONIST COMPOUNDS” (priority 2020, published 2023).

Protein sequences, listed by entry. Tags and fused reporters are not part of them. Residues count along the entry.
UniProt P43220, 24-463: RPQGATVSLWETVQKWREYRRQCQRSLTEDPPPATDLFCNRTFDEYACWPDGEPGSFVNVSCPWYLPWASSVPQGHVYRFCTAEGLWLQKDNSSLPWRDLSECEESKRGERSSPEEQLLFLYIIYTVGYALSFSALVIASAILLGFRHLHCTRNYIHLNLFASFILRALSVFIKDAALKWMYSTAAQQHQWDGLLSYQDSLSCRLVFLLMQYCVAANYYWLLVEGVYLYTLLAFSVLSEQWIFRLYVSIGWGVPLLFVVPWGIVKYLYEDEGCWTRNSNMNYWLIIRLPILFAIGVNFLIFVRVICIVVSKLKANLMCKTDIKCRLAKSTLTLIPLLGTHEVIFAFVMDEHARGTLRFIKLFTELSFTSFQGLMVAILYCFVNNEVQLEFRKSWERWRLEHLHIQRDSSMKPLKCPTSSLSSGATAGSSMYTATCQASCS
UniProt P47871, 26-477: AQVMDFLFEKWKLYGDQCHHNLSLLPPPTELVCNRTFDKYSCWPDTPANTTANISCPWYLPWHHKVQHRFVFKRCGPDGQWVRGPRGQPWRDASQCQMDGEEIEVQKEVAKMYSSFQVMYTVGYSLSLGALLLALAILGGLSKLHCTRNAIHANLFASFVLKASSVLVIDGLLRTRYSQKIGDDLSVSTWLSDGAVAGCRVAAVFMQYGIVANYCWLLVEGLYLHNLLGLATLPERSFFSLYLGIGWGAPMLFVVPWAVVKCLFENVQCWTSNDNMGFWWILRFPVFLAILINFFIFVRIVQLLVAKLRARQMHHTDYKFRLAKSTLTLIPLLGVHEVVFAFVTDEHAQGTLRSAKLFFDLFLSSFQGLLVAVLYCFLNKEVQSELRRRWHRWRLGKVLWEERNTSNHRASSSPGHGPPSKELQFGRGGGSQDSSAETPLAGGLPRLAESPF

Like-named read-outs stand apart in the source and are kept apart here.

Format in all cases: cell-based
One experiment addresses hGLP-1R (Homo sapiens, UniProt P43220). The experiment is described as follows: Functional cAMP formation (HTRF) in HEK-293 clonal cells expressing hGLP-1R, 0.1% bovine casein, without or with 1.0% human serum albumin. Set-up: expressed in transfected cells. Particulars: for EC50: geometric mean, read-out: hGLP-1R EC50, nM (SEM, n). As for the experimental part:
(§1) After a 30-min incubation at 37° C., the resulting increase in intracellular cAMP is quantitatively determined using a CisBio cAMP Dynamic 2 HTRF Assay Kit (62AM4PEJ). Briefly, cAMP levels within the cell are detected by adding the cAMP-d2 conjugate in cell lysis buffer (10 µL) followed by the antibody anti-cAMP-Eu^3+-Cryptate, also in cell lysis buffer (10 µL). The resulting competitive assay is incubated for at least 60 min at room temperature, and then is detected using a PerkinElmer Envision® instrument with excitation at 320 nm and emission at 665 nm and 620 nm. Envision units (emission at 665 nm/620 nm* 10,000) are inversely proportional to the amount of cAMP present and are converted to nM cAMP per well us-ing a cAMP standard curve. […] A relative EC50 value and percent top (Emax) are derived by non-linear regression analysis using the percent maximal response vs. the concentration of peptide added, fitted to a four-parameter logistic equation.
On the technique in general: Changes in cAMP serve as a functional read-out for many G protein-coupled receptors.

Another experiment deals with T1, hGIPR (Homo sapiens, UniProt P48546).
T1 construct: expressed in transfected cells
T1 sequence (P48546 22-466): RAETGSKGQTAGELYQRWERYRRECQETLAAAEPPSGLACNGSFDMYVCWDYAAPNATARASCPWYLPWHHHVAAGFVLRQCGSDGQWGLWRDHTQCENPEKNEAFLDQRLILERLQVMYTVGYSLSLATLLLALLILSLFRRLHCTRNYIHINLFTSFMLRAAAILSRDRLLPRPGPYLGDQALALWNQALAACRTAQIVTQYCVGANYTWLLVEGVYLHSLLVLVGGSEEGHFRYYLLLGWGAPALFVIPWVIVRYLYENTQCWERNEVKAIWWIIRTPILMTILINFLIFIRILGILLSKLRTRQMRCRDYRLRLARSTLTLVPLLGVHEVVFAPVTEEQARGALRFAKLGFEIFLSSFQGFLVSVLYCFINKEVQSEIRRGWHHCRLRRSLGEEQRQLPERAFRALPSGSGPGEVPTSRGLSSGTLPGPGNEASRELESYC
Briefly: Functional cAMP formation (HTRF) in HEK-293 clonal cells expressing hGIPR, 0.1% bovine casein, without or with 1.0% human serum albumin. The following applies: for EC50: geometric mean, read-out: hGIPR EC50, nM (SEM, n); for Emax: read-out: hGIPR Emax, % ± SEM. On the procedure:
as §1

The next experiment addresses T2, hGCGR (Homo sapiens, UniProt P47871).
T2 construct: expressed in transfected cells
The experiment is described as follows: Functional cAMP formation (HTRF) in HEK-293 clonal cells expressing hGCGR, 0.1% bovine casein, without or with 1.0% human serum albumin. Particulars: incubated at 37° C., 0.1% bovine casein (no human serum albumin), geometric mean, read-out: hGCGR EC50, nM (SEM, n). On the procedure: as §1

Setting [1] is: 0.1% bovine casein and 1.0% human serum albumin, 37° C.
[2] abbreviates: cAMP, incubated at 37° C., 0.1% bovine casein (no human serum albumin).

Turning to `CC[C@H](C)[C@H](NC(=O)[C@H](CC(C)C)NC(=O)[C@](C)(Cc1ccc(O)cc1)NC(=O)[C@H](CCCCNC(=O)COCCOCCNC(=O)COCCOCCNC(=O)CC[C@H](NC(=O)CCCCCCCCCCCCC(=O)O)C(=O)O)NC(=O)[C@@H](NC(=O)[C@H](Cc1ccccc1)NC(=O)[C@H](CCC(=O)O)NC(=O)C(C)(C)NC(=O)[C@H](CCC(N)=O)NC(=O)[C@H](C)NC(=O)[C@H](CCCCNC(=O)COCCOCCNC(=O)COCCOCCNC(=O)CC[C@H](NC(=O)CCCCCCCCCCCCC(=O)O)C(=O)O)NC(=O)[C@H](CCCN)NC(=O)[C@H](CC(=O)O)NC(=O)[C@H](CC(C)C)NC(=O)[C@](C)(CC(C)C)NC(=O)[C@@H](NC(=O)[C@H](CO)NC(=O)[C@H](Cc1ccncc1)NC(=O)[C@H](CC(=O)O)NC(=O)[C@H](CO)NC(=O)[C@@H](NC(=O)[C@](C)(Cc1ccccc1F)NC(=O)[C@@H](NC(=O)CNC(=O)[C@H](CCC(=O)O)NC(=O)C(C)(C)NC(=O)[C@@H](N)Cc1ccc(O)cc1)[C@@H](C)O)[C@@H](C)O)[C@@H](C)CC)[C@@H](C)CC)C(=O)N[C@@H](CCC(=O)O)C(=O)NCC(=O)NCC(=O)N1CCC[C@H]1C(=O)N[C@@H](CO)C(=O)N[C@@H](CO)C(=O)NCC(N)=O` [Example 188], the EC50 – broadly, the midpoint of the concentration-response curve – at hGLP-1R (setting [1]) is 19.1 nM; on hGLP-1R (setting [2]), 0.332 nM; at hGIPR (setting [1]) it was 1.37 nM; on hGIPR (setting [2]) it was 0.0228 nM; at hGCGR, greater than 9950 nM. In addition, the Emax – broadly, the maximal effect, on the per cent scale that the assay sets – stood at 96.6 ± 4.28% at hGLP-1R (HEK293, percent of maximal response to GLP-1(7-36)NH2, 37° C., 0.1% bovine casein, arithmetic mean, read-out: hGLP-1R Emax, % ± SEM); 89% on hGIPR (HEK293, 0.1% bovine casein and 1.0% human serum albumin, 37° C., percent of maximal response to GIP(1-42)NH2); 94.9 ± 1.49% at hGIPR (HEK293, percent of maximal response to GIP(1-42)NH2, 37° C., 0.1% bovine casein, arithmetic mean).
